Values of other authors, collected in US20240024386A1, “MICROBIOME MEDIATED INDUCTION OF IMMUNE TOLERANCE AND RESOLUTION OF INFLAMMATION” (INFINANT HEALTH, INC., priority 2020, published 2024).

Test system: SRS-CoV
Settings: Vero E6 cells

B1: IFNβ 1a: interferon beta-1a, a form of IFNβ (protein, UniProt P01574 22-187, looked up)
Interferon beta: MSYNLLGFLQRSSNFQCQKLLWQLNGRLEYCLKDRMNFDIPEEIKQLQQFQKEDAALTIYEMLQNIFAIFRQDSSSTGWNETIVENLLANVYHQINHLKTVLEEKLEKEDFTRGKLMSSLHLKRYYGRILHYLKAKEYSHCAWTIVRVEILRNFYFINRLTGYLRN
- inhibition of SRS-CoV: inhibits
